Experimental data published in ChEMBL document CHEMBL4033753, “Study of para-Quinone Methide Precursors toward the Realkylation of Aged Acetylcholinesterase” (2017).
pKi: −log10 of the molar value.

By UniProt entry, the sequences of proteins in these tests, tags left out. Residues count along the entry.
UniProt O42275, 24-633 limits assumed: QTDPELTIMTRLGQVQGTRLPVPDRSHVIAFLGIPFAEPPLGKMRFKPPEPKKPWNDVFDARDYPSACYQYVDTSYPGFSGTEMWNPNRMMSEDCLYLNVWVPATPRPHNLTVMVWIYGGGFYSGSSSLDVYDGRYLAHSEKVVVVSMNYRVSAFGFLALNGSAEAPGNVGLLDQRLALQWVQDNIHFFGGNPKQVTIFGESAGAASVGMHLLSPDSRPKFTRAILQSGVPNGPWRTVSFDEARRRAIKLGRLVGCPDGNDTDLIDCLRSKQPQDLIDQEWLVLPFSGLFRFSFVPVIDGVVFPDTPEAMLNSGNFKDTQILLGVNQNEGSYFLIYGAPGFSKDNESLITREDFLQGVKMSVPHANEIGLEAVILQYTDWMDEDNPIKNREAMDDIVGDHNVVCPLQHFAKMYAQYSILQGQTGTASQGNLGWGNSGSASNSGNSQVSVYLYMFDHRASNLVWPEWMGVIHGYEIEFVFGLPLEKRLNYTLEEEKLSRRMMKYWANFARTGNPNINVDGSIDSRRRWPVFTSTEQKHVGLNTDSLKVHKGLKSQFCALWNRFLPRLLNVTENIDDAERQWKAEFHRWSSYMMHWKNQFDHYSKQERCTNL

Target: Acetylcholinesterase (Electrophorus electricus, UniProt O42275)
Experiment: Mixed type inhibition of Electric eel AChE assessed as inhibition constant using acetylthiocholine as substrate after 7 min by Ellman's method

| SMILES | pKi |
| --- | --- |
| COc1cc(CN(C)C)ccc1O | 4.10 |
| COc1cc(CN2CCCC2)ccc1O | 4.02 |
